These are literature values, as cited in publication PMC9318694 (Molecules, 2022).

By UniProt entry, the sequences of proteins in these tests, tags left out. Where a name states a change or a piece, a line headed by the entry shows the natural chain unless it says otherwise.
UniProt P14416, whole entry: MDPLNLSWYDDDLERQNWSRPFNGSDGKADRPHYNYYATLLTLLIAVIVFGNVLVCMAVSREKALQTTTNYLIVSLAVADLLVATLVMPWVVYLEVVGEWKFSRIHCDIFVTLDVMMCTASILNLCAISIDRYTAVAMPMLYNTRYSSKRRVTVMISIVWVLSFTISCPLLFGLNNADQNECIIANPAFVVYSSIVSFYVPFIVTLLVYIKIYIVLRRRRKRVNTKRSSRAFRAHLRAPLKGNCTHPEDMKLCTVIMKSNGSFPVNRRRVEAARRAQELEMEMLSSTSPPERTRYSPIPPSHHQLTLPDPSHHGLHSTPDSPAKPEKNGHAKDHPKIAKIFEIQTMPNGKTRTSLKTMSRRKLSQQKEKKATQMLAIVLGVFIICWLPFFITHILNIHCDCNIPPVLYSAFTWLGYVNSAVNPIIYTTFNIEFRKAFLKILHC

The target in the data set is D2R (Homo sapiens, UniProt P14416). As to conditions: Table S1; data set of actives, radio-ligand binding assays; ref ChEMBL, [50]-[70]; cited from earlier work.

For the molecule `Oc1ccc2c(c1)O[C@@H](CNCc1ccc(I)cc1)CC2` [SC20, (R)-2-(((4-iodobenzyl)amino)methyl)chroman-7-ol], the inhibitory constant (Ki) is 3.79 nM.
